# Measured values taken from patent publication US7547700B2, “Aryl-[4-halo-4(heteroarylmethylamino)-methyl]-piperidin-1-1yl]-methanone derivatives, methods for production and use thereof as medicaments” (PIERRE Fabre Medicament, priority 2002, dated 2009).
# By UniProt entry, the sequences of proteins in these tests, tags left out.
# UniProt P61169, whole entry: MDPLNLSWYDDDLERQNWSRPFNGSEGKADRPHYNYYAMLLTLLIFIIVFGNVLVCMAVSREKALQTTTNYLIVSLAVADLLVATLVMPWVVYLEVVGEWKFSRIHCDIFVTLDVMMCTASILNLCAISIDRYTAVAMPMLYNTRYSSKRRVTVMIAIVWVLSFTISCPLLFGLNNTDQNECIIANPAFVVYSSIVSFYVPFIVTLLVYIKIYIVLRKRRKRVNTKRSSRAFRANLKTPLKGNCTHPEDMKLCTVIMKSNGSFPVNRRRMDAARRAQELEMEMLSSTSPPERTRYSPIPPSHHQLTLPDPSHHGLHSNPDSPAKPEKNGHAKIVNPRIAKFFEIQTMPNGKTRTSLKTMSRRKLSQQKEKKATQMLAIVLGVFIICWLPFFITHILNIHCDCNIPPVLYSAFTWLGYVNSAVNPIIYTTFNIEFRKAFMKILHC
# UniProt P19327, whole entry: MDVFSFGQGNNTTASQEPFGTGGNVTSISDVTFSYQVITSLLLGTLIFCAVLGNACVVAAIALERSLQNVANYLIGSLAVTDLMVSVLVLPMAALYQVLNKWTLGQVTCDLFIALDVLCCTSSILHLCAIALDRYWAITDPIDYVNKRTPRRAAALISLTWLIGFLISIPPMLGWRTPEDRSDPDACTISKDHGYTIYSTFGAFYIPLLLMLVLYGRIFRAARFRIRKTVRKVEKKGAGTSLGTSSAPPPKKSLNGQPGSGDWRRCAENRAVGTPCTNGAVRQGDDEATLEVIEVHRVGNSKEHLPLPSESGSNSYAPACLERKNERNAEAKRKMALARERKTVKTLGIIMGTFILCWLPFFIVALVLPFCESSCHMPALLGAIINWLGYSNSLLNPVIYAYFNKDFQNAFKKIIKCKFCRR
# Tests used:
# [1] = target: T1, dopaminergic D2 receptors (Rattus norvegicus, UniProt P61169); assay: Affinity for the D2 receptors, displacement of [3H]YM-09151-2; assay type: binding; details: D2 pKi, rat striatum, [3H]YM-09151-2 displacement, mean of at least 3 experiments
# T1 construct: For these experiments, rat striatum is used; from tissue; host or cells: rat striatum homogenate
# Method: Measurement of the affinity of the compounds of the invention for the D2 receptors
# For these experiments, rat striatum is used. After thawing the brain in Tris-HCl buffer (50 mmol, pH=7.4) at 25° C., the striatum is removed and homogenized in 40 volumes of buffer maintained at 4° C. The homogenate is centrifuged at 20 000×g for 10 minutes, and the centrifugation pellet is suspended in the same volume of buffer and recentrifuged. The final pellet is suspended in cold Tris-HCl reaction buffer at 25° C. containing 120 mmol of NaCl and 5 mmol of KCl. The final concentration of tissue in the incubation medium is 2 mg/tube. […] The nonspecific binding is defined by using […] of (+)-butaclamol. The reaction tubes are incubated at 23° C. for 60 minutes and their content is then rapidly filtered through Whatman GF/B filters, and the tubes are rinsed twice with 5 ml of Tris-HCl buffer at 25° C. The radioactivity collected on the filter is analyzed by liquid scintillation, by adding 4 ml of scintillant liquid (Emulsifier Safe, Packard). All the experiments are performed in triplicate.
# 5-HT1A receptors = target: T2, 5-HT1A receptors (Rattus norvegicus, UniProt P19327); assay: Affinity for the 5-HT1A receptors, displacement of [3H]8-OH-DPAT; assay type: binding; details: ratio of 5-HT1A to D2 affinity
# T2 construct: For these experiments, rat cerebral cortices are used; from tissue; host or cells: rat cerebral cortex homogenate
# Method: Measurement of the affinity of the compounds in the invention for the 5-HT1A receptors
# For these experiments, rat cerebral cortices are used. After thawing the brain in Tris-HCl buffer (50 mmol, pH=7.4) at 25° C., the cerebral cortex is removed and homogenized in 20 volumes of buffer maintained at 4° C. The homogenate is centrifuged at 39 000×g for 10 minutes, and the centrifugation pellet is suspended in the same volume of buffer and recentrifuged. After resuspending under the same conditions, the homogenate is incubated for 10 minutes at 37° C. and then recentrifuged. The final pellet is suspended in cold Tris-HCl reaction buffer (50 mmol) at 25° C. containing […] of pargyline, 4 mmol of CaCl2 and 0.10% of ascorbic acid. The final concentration of tissue in the incubation medium is 10 mg/tube.
# The nonspecific binding is defined by using […] of serotonin. The reaction tubes are incubated at 23° C. for 30 minutes and their content is then rapidly filtered under vacuum through Whatman GF/B filters, and the tubes are rinsed with twice 5 ml of tris-HCl buffer at 25° C. The radio-activity collected on the filter is analyzed by liquid scintillation, by adding 4 ml of scintillant liquid (Emulsifier Safe, Packard, Warrenville, USA). All the experiments are performed in triplicate.
smiles,measurement,setting,value
"Cc1ccc(CNCC2(F)CCN(C(=O)c3ccc(F)c(Cl)c3)CC2)nc1 [Compound I-66, (3-chloro-4-fluorophenyl)(4-fluoro-4-{[(5-methylpyridin-2-ylmethyl)-amino]methyl}piperidin-1-yl)methanone, reference compound]",Ki,[1],> 10 µM
same,Selectivity 5-HT1A/D2,5-HT1A receptors,>1000
